Source: patent US11464859B2 (priority 2005, dated 2022)

How the values were obtained:
[1] = for secondary parameters (safety parameters): any of the dose levels
[2] = system: human tumour xenografts (renal cell carcinoma RXF 944LX, mammary cancer MAXF 401); test: subcutaneously transplanted human tumour xenografts in vivo

Substance: arsenous acid sodium salt
- safety (laboratory) parameters, overall ([1]; all patients): no clinically significant results
- secondary parameters (safety parameters) ([1]; patient H-W. S.): no clinically significant results
- secondary parameters (safety parameters) ([1]; patient five): no clinically significant results
- secondary parameters (safety parameters) ([1]; patient four): no clinically significant results
- secondary parameters (safety parameters) ([1]; patient one): no clinically significant results
- secondary parameters (safety parameters) ([1]; patient three): no clinically significant results
- secondary parameters (safety parameters) ([1]; patient two): no clinically significant results
- doses giving the highest efficacy [2]: ⅓-⅔

Like-named read-outs stand apart in the source and are kept apart here.
